Drawing on PubChem BioAssay AID926 (National Center for Advancing Translational Sciences (NCATS), 2007), this text covers Potency for 1 molecule.

Chains of the proteins cited; added tags and fusions are not shown.
UniProt P16473, whole entry, looked up: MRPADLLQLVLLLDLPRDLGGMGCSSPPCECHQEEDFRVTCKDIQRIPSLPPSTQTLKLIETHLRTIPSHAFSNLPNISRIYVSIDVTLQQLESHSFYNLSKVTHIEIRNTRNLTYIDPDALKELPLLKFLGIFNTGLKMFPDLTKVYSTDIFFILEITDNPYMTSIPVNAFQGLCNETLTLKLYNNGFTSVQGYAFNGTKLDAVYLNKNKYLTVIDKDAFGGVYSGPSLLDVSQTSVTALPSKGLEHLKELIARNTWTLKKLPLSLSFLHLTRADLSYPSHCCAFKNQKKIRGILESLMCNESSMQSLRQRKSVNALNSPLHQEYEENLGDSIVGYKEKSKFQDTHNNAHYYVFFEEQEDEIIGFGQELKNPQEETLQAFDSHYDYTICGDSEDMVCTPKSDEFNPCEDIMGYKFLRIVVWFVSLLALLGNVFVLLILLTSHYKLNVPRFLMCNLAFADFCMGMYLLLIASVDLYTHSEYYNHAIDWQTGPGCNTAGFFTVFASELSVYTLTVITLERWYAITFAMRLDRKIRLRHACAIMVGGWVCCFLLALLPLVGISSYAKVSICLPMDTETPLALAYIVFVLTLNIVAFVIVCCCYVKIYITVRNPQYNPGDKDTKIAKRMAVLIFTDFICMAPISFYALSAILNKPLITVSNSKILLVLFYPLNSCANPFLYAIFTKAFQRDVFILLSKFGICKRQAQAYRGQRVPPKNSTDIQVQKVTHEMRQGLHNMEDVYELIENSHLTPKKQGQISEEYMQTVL

The entries are a selection whose mix differs from that of the whole data set. Records with an inconclusive call do not appear. Active and inactive are the calls of the source. Calls follow the shape of the dose curve; as a rule, active = well fitted activation curve with a large enough effect in the main read-out, with a control signal flat (not every such curve was filed as active); inconclusive = small, poorly fitted or top-dose-only effect, or a change in a side signal; inactive = no such curve, though single readings can be large or run the other way; reference of the percent scale not stated here.
Potency is read from the fitted curve at half-maximal effect.

The test concerns the target Thyrotropin receptor (Homo sapiens) (UniProt P16473). The test can be described thus: qHTS Assay for Agonists of the Thyroid Stimulating Hormone Receptor.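 Also: the control signal comes from parental cells without the receptor.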 The following applies: HEK293-CNG-TSHR cells (CNG channel as cAMP sensor), membrane potential dye, cAMP. In general terms: In qHTS, concentration-response curves come from the screen itself.
As for `Cc1nn(-c2ccccc2)c2c1P(=O)(N1CCOCC1)N(C)C(c1ccccc1)=N2` (stereo unspecified), the Potency is active: 25.1 µM.
